Test results as given in paper PMC6623464, “HTLV-1 basic leucine zipper factor protects cells from oxidative stress by upregulating expression of Heme Oxygenase I”.

Biological target: MafG-His;GST-HBZ (human?;HTLV-1, UniProt O15525;P0C746-2 1-162;1-206, |)
Experiment: EMSA; complex substantially increased over MafG alone; EMSA: 0.5x TM (100 mM Tris-HCl pH 7.5, 20 mM MgSO4 as printed), 1 mM DTT, 1 ug BSA, 100 ng poly(dA)-poly(dT), 2-10 fmol probe, 20 C, 1 h; proteins stored in 50
Settings: protein: recombinant;recombinant; tags: 6xHis (pRSET A);GST; copies: 1;1; label: 32P end label

B1: T-MARE probe (dsDNA)
DNA 1: AGCTCGGAATTGCTGACTCAGCATTACTCTCG
DNA 2: CGAGAGTAATGCTGAGTCAGCAATTCCGAGCT
B1: binds.
